Experiment [1] is filed under the species Homo sapiens. The experiment can be described thus: Selectivity ratio of IC50 for wild-type EGFR phosphorylation in human A431 cells to IC50 for EGFR L858R/T790M mutant phosphorylation in human NCI-H1975 cells. The class given is cell-based.
The species named for experiment [2] is Homo sapiens. The experiment in a line: Selectivity ratio of IC50 for recombinant human GST-tagged wild-type EGFR cytoplasmic domain (668 to 1210 residues) to IC50 for recombinant human GST-tagged EGFR L858R/T790M mutant cytoplasmic domain (668 to 1210 residues).

Experimental findings from ChEMBL document CHEMBL4219138, “Discovery of N-aryl-N'-pyrimidin-4-yl ureas as irreversible L858R/T790M mutant selective epidermal growth factor receptor inhibitors” (Bioorg Med Chem Lett, 2018) are described below.

Take `C=CC(=O)Nc1cccc(NC(=O)Nc2ccnc(Nc3ccc(N4CCC(N5CCOCC5)CC4)cc3OC)n2)c1`: in experiment [1], the Ratio IC50 amounted to 158.
`C=CC(=O)Nc1cccc(NC(=O)Nc2ccnc(Nc3ccc(N4CCOCC4)cc3OC)n2)c1`: the Ratio IC50 in experiment [2] amounted to 15.
